Laboratory results: US20250325542A1, “INHIBITORS OF ANTIMOCROBIAL RESISTANCE AND METHOS USING SAME” (Baylor College of Medicine, priority 2022, published 2025)

The chains behind the UniProt entries cited, without tags or fusion partners.
UniProt C7C422, whole entry, looked up, species assumed: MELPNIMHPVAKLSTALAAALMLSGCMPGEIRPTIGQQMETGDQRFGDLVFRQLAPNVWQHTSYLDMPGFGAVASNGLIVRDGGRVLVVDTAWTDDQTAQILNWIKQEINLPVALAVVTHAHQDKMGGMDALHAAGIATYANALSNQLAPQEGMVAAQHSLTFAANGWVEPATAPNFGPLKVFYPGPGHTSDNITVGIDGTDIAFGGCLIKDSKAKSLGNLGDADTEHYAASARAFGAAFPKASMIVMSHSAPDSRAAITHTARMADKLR

Biological target: NDM-1 (Klebsiella pneumoniae, UniProt C7C422)
Details: read-out: NDM-1 Ki

Question: `CN(C)C(=O)c1ccc(CNCc2ccc(O)c(C(=O)O)c2)s1` [CDD-2350, 5-((((5-(dimethylcarbamoyl)thiophen-2-yl)methyl)amino)methyl)-2-hydroxybenzoic acid] was tested. Which Ki did it give?
Answer: Its Ki is 125 ± 14 µM.
